Measurements published in patent publication US8686023B2, “Salts of sunitinib” (Lek Pharmaceuticals D.D., priority 2008, dated 2014).

| Solubility of sunitinib salts in water at 25° C. [mg/mL] | Substance |
| --- | --- |
| 142 | sunitinib D-tartrate |
| 111 | sunitinib L-tartrate |
